# Laboratory results: PMC12102759 (Protein Science : A Publication of the Protein Society, 2025)
# Test system: YES SH3
# Assay type: binding, human
row,Sequence,PSSM value of the single amino acid variant (DMS by phage display)
1,TSSIQSRPLPSPPKFT P8T (TSSIQSRTLPSPPKFT),0.03806
2,TSSIQSRPLPSPPKFT P8V (TSSIQSRVLPSPPKFT),0.1254
3,TSSIQSRPLPSPPKFT P8W (TSSIQSRWLPSPPKFT),0.05669
4,TSSIQSRPLPSPPKFT P8Y (TSSIQSRYLPSPPKFT),0.05615
5,TSSIQSRPLPSPPKFT P10A (TSSIQSRPLASPPKFT),0.01332
6,TSSIQSRPLPSPPKFT P10D (TSSIQSRPLDSPPKFT),0
7,TSSIQSRPLPSPPKFT P10E (TSSIQSRPLESPPKFT),0
8,TSSIQSRPLPSPPKFT P10F (TSSIQSRPLFSPPKFT),0
9,TSSIQSRPLPSPPKFT P10G (TSSIQSRPLGSPPKFT),0
10,TSSIQSRPLPSPPKFT P10H (TSSIQSRPLHSPPKFT),0.01042
11,TSSIQSRPLPSPPKFT P10I (TSSIQSRPLISPPKFT),0
12,TSSIQSRPLPSPPKFT P10K (TSSIQSRPLKSPPKFT),0.06583
13,TSSIQSRPLPSPPKFT P10L (TSSIQSRPLLSPPKFT),0.01332
14,TSSIQSRPLPSPPKFT P10M (TSSIQSRPLMSPPKFT),0
15,TSSIQSRPLPSPPKFT P10N (TSSIQSRPLNSPPKFT),0.01332
16,TSSIQSRPLPSPPKFT P10P,0.5995
17,TSSIQSRPLPSPPKFT P10Q (TSSIQSRPLQSPPKFT),0.05252
18,TSSIQSRPLPSPPKFT P10R (TSSIQSRPLRSPPKFT),0

row,Sequence,PSSM value of the single amino acid variant (DMS by phage display)
1,TSSIQSRPLPSPPKFT P10S (TSSIQSRPLSSPPKFT),0
2,TSSIQSRPLPSPPKFT P10T (TSSIQSRPLTSPPKFT),0.04316
3,TSSIQSRPLPSPPKFT P10V (TSSIQSRPLVSPPKFT),0.1886
4,TSSIQSRPLPSPPKFT P10W (TSSIQSRPLWSPPKFT),0
5,TSSIQSRPLPSPPKFT P10Y (TSSIQSRPLYSPPKFT),0
6,TSSIQSRPLPSPPKFT P12A (TSSIQSRPLPSAPKFT),0.0004202
7,TSSIQSRPLPSPPKFT P12D (TSSIQSRPLPSDPKFT),0.0008648
8,TSSIQSRPLPSPPKFT P12E (TSSIQSRPLPSEPKFT),0.0109
9,TSSIQSRPLPSPPKFT P12F (TSSIQSRPLPSFPKFT),0.03562
10,TSSIQSRPLPSPPKFT P12G (TSSIQSRPLPSGPKFT),0.0004202
11,TSSIQSRPLPSPPKFT P12H (TSSIQSRPLPSHPKFT),0.02579
12,TSSIQSRPLPSPPKFT P12I (TSSIQSRPLPSIPKFT),0.003902
13,TSSIQSRPLPSPPKFT P12K (TSSIQSRPLPSKPKFT),0.01081
14,TSSIQSRPLPSPPKFT P12L (TSSIQSRPLPSLPKFT),0.2921
15,TSSIQSRPLPSPPKFT P12M (TSSIQSRPLPSMPKFT),0.002721
16,TSSIQSRPLPSPPKFT P12N (TSSIQSRPLPSNPKFT),0.008113
17,TSSIQSRPLPSPPKFT P12P,0.01892
18,TSSIQSRPLPSPPKFT P12Q (TSSIQSRPLPSQPKFT),0.3066
